Test results as given in patent US9150579B2, “Selective PI3K delta inhibitors” (Rhizen Pharmaceuticals SA, priority 2012, dated 2015).

Amino acid sequences for entries named in this document (tags omitted). A change or cut given only in a name is not applied to a line headed by its entry.
UniProt P42336, whole entry: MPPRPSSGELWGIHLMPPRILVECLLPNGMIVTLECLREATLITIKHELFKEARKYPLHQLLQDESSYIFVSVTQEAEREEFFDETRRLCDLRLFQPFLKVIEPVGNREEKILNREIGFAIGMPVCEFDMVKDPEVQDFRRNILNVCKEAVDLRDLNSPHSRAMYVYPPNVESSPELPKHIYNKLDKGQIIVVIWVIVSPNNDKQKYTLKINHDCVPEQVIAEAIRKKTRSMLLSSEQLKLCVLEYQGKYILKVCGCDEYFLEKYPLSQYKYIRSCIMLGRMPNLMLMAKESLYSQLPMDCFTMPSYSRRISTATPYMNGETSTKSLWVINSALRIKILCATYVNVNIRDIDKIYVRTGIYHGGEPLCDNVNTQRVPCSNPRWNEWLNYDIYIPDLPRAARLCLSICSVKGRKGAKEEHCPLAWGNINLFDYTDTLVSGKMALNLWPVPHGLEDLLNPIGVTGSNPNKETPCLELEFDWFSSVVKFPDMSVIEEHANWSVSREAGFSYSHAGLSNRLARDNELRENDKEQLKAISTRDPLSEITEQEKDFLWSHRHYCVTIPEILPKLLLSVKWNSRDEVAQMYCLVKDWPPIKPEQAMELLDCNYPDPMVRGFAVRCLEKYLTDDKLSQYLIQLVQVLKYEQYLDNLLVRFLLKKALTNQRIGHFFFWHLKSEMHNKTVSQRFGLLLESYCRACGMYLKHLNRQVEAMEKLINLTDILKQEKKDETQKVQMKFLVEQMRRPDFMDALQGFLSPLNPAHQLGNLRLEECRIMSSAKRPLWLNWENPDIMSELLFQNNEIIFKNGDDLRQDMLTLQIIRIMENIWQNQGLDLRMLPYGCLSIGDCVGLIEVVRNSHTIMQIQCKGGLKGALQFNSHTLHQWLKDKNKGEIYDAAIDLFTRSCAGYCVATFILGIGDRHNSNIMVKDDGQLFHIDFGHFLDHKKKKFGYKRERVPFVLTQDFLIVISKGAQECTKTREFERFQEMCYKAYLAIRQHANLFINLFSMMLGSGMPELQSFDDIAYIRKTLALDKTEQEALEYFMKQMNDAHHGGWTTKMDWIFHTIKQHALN
UniProt P42338: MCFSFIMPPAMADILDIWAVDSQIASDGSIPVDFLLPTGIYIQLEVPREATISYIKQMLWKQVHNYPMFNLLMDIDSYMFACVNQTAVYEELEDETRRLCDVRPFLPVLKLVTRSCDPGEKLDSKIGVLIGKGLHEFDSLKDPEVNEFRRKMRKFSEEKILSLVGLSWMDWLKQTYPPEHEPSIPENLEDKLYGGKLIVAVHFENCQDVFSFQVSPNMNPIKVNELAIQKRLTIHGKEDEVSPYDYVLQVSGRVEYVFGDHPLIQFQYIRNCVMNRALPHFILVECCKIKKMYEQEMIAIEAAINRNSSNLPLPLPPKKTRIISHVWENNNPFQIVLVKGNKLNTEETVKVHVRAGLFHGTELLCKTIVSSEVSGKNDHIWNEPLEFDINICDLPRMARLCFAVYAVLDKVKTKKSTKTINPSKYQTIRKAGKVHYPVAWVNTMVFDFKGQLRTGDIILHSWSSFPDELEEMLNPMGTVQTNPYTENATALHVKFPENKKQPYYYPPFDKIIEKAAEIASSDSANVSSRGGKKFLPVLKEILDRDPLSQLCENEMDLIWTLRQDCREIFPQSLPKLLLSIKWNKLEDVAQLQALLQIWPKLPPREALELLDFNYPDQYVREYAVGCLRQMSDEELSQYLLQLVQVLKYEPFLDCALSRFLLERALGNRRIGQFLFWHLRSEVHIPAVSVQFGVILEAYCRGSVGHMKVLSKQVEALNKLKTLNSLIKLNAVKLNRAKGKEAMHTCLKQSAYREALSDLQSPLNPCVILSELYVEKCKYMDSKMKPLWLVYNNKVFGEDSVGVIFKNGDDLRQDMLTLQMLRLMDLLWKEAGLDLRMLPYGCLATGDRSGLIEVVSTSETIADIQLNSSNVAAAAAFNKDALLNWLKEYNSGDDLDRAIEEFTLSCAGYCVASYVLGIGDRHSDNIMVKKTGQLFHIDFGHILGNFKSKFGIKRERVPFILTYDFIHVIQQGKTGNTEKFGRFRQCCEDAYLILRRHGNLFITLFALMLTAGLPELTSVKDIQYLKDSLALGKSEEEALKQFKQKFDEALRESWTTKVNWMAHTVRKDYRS
UniProt P48736: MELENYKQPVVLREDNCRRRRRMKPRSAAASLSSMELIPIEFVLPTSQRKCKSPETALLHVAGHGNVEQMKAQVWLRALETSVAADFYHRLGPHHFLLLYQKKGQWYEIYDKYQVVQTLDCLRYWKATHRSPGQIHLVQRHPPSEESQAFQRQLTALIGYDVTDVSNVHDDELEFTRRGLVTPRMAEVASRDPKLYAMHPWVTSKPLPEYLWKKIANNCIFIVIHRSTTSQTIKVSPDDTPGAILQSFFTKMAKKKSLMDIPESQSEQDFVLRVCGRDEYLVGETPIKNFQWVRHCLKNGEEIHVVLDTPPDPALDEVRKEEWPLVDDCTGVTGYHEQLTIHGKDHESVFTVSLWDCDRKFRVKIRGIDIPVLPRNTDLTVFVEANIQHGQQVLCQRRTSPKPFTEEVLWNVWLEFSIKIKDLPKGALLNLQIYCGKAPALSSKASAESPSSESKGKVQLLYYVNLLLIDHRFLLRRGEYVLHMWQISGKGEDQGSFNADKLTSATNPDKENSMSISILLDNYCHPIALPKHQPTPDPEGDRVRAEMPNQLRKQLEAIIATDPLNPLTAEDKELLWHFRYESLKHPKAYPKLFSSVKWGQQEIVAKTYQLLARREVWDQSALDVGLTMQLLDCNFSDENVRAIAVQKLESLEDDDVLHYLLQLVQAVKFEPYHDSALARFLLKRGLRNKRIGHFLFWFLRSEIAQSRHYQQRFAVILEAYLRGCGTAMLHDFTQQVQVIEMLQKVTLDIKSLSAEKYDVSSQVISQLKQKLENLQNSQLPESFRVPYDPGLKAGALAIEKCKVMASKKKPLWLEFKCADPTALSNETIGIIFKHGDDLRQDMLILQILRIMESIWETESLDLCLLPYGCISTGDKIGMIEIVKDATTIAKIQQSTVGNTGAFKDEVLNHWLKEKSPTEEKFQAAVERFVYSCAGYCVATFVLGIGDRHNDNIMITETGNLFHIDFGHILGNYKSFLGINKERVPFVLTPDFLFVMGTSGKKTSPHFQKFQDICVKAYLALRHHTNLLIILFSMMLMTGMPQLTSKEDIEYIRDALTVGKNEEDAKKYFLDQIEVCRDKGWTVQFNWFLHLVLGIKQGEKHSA

Legend:
Format in all cases: biochemical
PI3K α = PI3K α (Homo sapiens (Human), UniProt P42336); experiment: Assay 1: Fluorescent (HTRF) determination of PI3K enzyme activity, alpha
Experimental: (§1) The homogenous time resolved fluorescence (HTRF) assay allows detection of 3,4,5-triphosphate (PIP3) formed as a result of phosphorylation of phosphotidylinositol 4,5-biphosphate (PIP2) by PI3K isoforms such as α, β, γ or δ.
(§2) PI3K isoform activity for α, β, γ or δ was determined using a PI3K human HTRF™ Assay Kit (Millipore, Billerica, Mass.) with modifications. All incubations were carried out at room temperature. […] After the initial incubation, 5 μl/well of 400 μM ATP was added and incubated for an additional 30 minutes. Reaction was terminated by adding 5 μl/well stop solution (Millipore, Billerica, Mass.). Five microliters of detection mix (Millipore, Billerica, Mass.) were then added to each well and was incubated for 6-18 h in the dark.

PI3K β = PI3K β (Homo sapiens (Human), UniProt P42338); experiment: Assay 1: Fluorescent (HTRF) determination of PI3K enzyme activity, beta
Experimental: as §1, §2

PI3K γ = PI3K γ (Homo sapiens (Human), UniProt P48736); experiment: Assay 1: Fluorescent (HTRF) determination of PI3K enzyme activity, gamma
Experimental: as §1, §2

Structure (SMILES)	inhibition at 1 µM (PI3K α) [%]	inhibition at 1 µM (PI3K β) [%]	inhibition at 1 µM (PI3K γ) [%]
CC(C)Oc1ccc(-c2nn([C@@H](C)c3oc4ccc(F)cc4c(=O)c3-c3cccc(F)c3)c3ncnc(N)c23)cc1F [Compound B1, (S)-2-(1-(4-amino-3-(3-fluoro-4-isopropoxyphenyl)-1H-pyrazolo[3,4-d]pyrimidin-1-yl)ethyl)-6-fluoro-3-(3-fluorophenyl)-4H-chromen-4-one]	19.1	44.9	47.2
CC(C)Oc1ccc(-c2nn(C(C)c3oc4ccc(F)cc4c(=O)c3-c3cccc(F)c3)c3ncnc(N)c23)cc1F (racemic) [Compound B, 2-(1-(4-amino-3-(3-fluoro-4-isopropoxyphenyl)-1H-pyrazolo[3,4-d]pyrimidin-1-yl)ethyl)-6-fluoro-3-(3-fluorophenyl)-4H-chromen-4-one]	37.9	18	18.3
CC(C)Oc1ccc(-c2nn([C@H](C)c3oc4ccc(F)cc4c(=O)c3-c3cccc(F)c3)c3ncnc(N)c23)cc1F [Compound B2, (R)-2-(1-(4-amino-3-(3-fluoro-4-isopropoxyphenyl)-1H-pyrazolo[3,4-d]pyrimidin-1-yl)ethyl)-6-fluoro-3-(3-fluorophenyl)-4H-chromen-4-one]	25.3	52	68.1
